In PMC6723440 (Toxins, 2019):

Legend:
[1] = human, pH 7.4
[2] = human, pH 7.4; remark: listed apart in the source

Substance: 7-β-hydroxy-zearalenol [β-ZOL]
- percentage of metabolized parent toxin in phase I reactions ([1]; microsomes, 1 h): 7%
- Number of Metabolites (n): Desaturation, oxidation, −(H2) +(O) [1]: 1
- Number of Metabolites (n): Desaturation, oxidation, −(H4) +(O) [1]: 1
- Number of Metabolites (n): Oxidation, +(O2) [1]: 0
- Number of Metabolites (n): Oxidation, −(H4) +(O2) [1]: 0
- ∑ n, total number of oxidized metabolites [1]: 8
- Total Number of Glucuronides [2]: 7
- converted into glucoronides [2]: 51%
- glucuronides of oxidized metabolites and double glucuronides (minor products) [2]: 2%
